From patent US20240158413A1, “FUSED POLYCYCLIC SUBSTITUTED 5-CARBOXYLIC ACID THIENOPYRIMIDINE DIONE COMPOUND AND USE THEREOF” (SOTER BIOPHARMA PTE. LTD., priority 2021, published 2024)

The chains behind the UniProt entries cited, without tags or fusion partners.
UniProt P30968, whole entry: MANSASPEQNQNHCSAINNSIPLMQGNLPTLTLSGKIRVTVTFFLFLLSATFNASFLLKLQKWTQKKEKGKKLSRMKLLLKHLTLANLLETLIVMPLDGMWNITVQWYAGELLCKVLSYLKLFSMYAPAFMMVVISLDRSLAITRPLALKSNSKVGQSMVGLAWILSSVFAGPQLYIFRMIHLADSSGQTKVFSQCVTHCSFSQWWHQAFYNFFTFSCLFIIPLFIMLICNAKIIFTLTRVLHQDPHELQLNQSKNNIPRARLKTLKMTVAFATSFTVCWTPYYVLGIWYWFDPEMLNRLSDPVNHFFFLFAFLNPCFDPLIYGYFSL

Target: human gonadotropin-releasing hormone receptor (Homo sapiens (Human), UniProt P30968)
Assay: FLIPR calcium flow assay of inhibitory activity on gonadotropin-releasing hormone receptor in GnRH/HEK293 cells
Settings: read-out: IC50 on inhibiting the activity of human gonadotropin-releasing hormone receptor, Ca2+ flow, agonist Leuprolide acetate
Procedure: Objective of assay: to detect the inhibitory activity of assay compounds on gonadotropin-releasing hormone receptor at the cellular level using FLIPR detection technology.
GnRH/HEK293 (human embryonic kidney cell 293) cultured cells in the logarithmic growth phase were washed with DPBS (Dulbecco's phosphate buffered saline) buffer, and an appropriate amount of 0.05% EDTA (ethylenediaminetetraacetic acid)-trypsin was added. The cells were placed in a carbon dioxide incubator at 37° C. for digestion for 1-2 minutes, and then removed from the incubator. A medium was added to the cells to terminate the digestion. Cells were dispersed by repeated pipetting and harvested by centrifugation. […]
On the next day, 20 μL, of 2×Fluo-4Direct™ buffer was added to each well, and the plate was incubated in a 5% CO2, 37° C. incubator for 50 minutes. […] The fluorescence signal was read. Then 10 μL of the reference compound as an agonist was added, and the fluorescent signal was read. EC50 was calculated, and the agonist with a concentration of 6×EC50 was prepared.
2 mM assay compounds and an appropriate concentration of reference compound were serially diluted 4-fold to 10 concentrations in ECHO, and 900 nL of that was transferred to a compound plate. […] The fluorescent signal was read. Then 10 μL of agonist with a concentration of 6×EC50 was added to the cell plate and the fluorescent signal was read. […]

Structure (SMILES): O=C(O)c1scc2[nH]c(=O)n(-c3cc4c(cc3F)OCCCOc3c(F)cc(F)cc3CO4)c(=O)c12
- IC50: 18 nM

Structure (SMILES): O=C(O)c1scc2[nH]c(=O)n(-c3cc4c(cc3F)OCCCCOc3ccc(F)c(F)c3CO4)c(=O)c12
- IC50: 10.1 nM
